{"source": "ChEMBL document CHEMBL1130720", "about": "“Design, synthesis, and conformational analysis of a novel series of HIV protease inhibitors” (Bioorg Med Chem Lett, 1998)", "target": "Human immunodeficiency virus type 1 protease (Human immunodeficiency virus 1, UniProt Q72874)", "test": "Binding affinity to HIV-1 protease was determined", "note": "pKi: −log10 of the molar value.", "data": [{"smiles": "CC(C)CN(C[C@@H](O)[C@H](Cc1ccccc1)NC(=O)O[C@H]1CCOC1)S(=O)(=O)c1ccc(N)cc1", "note": "[AMPRENAVIR]", "values": [{"measurement": "pKi", "value": "> 10.00"}]}]}
